The values that follow come from PubChem BioAssay AID651999 (Sanford-Burnham Center for Chemical Genomics, 2013).

Protein sequences, listed by entry. Tags and fused reporters are not part of them.
UniProt Q92905, whole entry: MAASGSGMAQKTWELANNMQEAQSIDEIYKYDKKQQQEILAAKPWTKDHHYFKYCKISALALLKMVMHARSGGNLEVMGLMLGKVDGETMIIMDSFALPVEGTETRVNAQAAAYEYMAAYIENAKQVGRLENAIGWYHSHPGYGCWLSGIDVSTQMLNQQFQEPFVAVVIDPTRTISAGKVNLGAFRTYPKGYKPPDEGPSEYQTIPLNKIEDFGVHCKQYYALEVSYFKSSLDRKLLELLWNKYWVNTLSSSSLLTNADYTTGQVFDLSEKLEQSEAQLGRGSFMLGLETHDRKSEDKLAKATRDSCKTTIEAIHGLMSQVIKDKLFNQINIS

The entries are a selection whose mix differs from that of the whole data set. Some structures show a salt or complex split into parts, the way the source records it. The source made the active and inactive calls.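 The calls were made as follows: active = pattern-corrected inhibition above about 35%, with an unprinted fluorescence ratio check between 0.5 and 1.5 (limit read from the data, passing the limit was not always enough); inactive = the rest.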

In general, inhibition refers to the relative decrease from the control value, in per cent.

This experiment deals with COP9 signalosome complex subunit 5 (Homo sapiens) (UniProt Q92905). Description: CSN5 deneddylase inhibitors on cullin-RING ligase – biochemical, fluorescence polarization, uHTS, primary screen (AID 651999).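 Also: 0% = enzyme with substrate and 100% = substrate without enzyme.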 The following applies: Purified CSN, SCF-Nedd8-OG deneddylation, at 12.5 µM, hits give high values. In outline: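 Test system: purified human Csn5 enzyme expressed in HEK293T cells. Amount: 0.24 nM enzyme. Reagent: SCFSkp2-Nedd8OG substrate at 10 nM final. Schedule: 90 min incubation of compound, enzyme and substrate at room temperature. Detection: fluorescence polarization. Read-out: % inhibition of substrate cleavage by Csn5.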
Background: Polarisation of emitted light reports the rotation of a fluorescent probe.
As for `CN(Cc1cccnc1)C(=O)COc1ccc(Cl)c(Cl)c1.O=[N+]([O-])c1cc([N+](=O)[O-])c(O)c([N+](=O)[O-])c1`, the inhibition was inactive: -4.61%.
As for `CCOP(C)(=S)SCC(=O)NC(C)C(=O)O` (stereo not given), the inhibition was inactive: -0.85%.
`CCOC(=O)c1ccc(NP(C)(=O)Oc2ccc(OC)cc2)cc1` (stereo not given): the inhibition is inactive: 1.36%.
With `O=[N+]([O-])c1cc([N+](=O)[O-])c(O)c([N+](=O)[O-])c1.c1ccc(Oc2ccncc2)cc1`, the inhibition is inactive: -2.86%.
As to `CP(=O)(Nc1ccccn1)Oc1ccc(Cl)cc1` (stereo not given), the inhibition is inactive: -4.39%.
Turning to `Cc1ccc(Nc2c([N+](=O)[O-])cc([N+](=O)[O-])cc2[N+](=O)[O-])cc1`, the inhibition was inactive: -3.22%.
Then `Cc1cccc(C)c1OP(C)(=O)Nc1ccc(SC(F)(F)F)cc1` (stereo not given), with inactive: -1.75%; and `CP(=O)(Nc1ccc(SC(F)(F)F)cc1)Oc1ccc(Cl)cc1` (stereo not given), with inactive: -1.15%; and `CP(=O)(Oc1ccccc1)OC(c1ccccc1)C(F)(F)F` (stereo not given), with inactive: -4.58%.
With `CCc1ccc(OP(C)(=O)N2CCN(c3ccc([N+](=O)[O-])cc3)CC2)cc1` (stereo not given) the figure was inactive: 5.86%; with `CP(=O)(NC(=O)Nc1ccccc1)Oc1ccccc1` (stereo not given), inactive: 2.31%.
As for `Cc1cc(C)cc(OP(C)(=O)Nc2ccc(SC(F)(F)F)cc2)c1` (stereo not given), the inhibition is inactive: 3.25%.
With `CP(=S)(Nn1cnnc1)Oc1ccccc1` (stereo not given), the inhibition was inactive: -3.71%.
With `COc1ccccc1OP(C)(=O)Nc1ccccc1` (stereo not given) the figure was inactive: 2.25%; with `CP(=O)(Nc1ccccc1Br)Oc1ccccc1` (stereo not given), inactive: 5.48%; with `CCOC(=O)c1ccc(NP(C)(=O)Oc2ccccc2)cc1` (stereo not given), inactive: 3.85%.
In the case of `COc1ccccc1OP(C)(=O)Nc1ccc(C)cc1` (stereo not given), the inhibition was inactive: 0.75%.
Consider `Cc1ccc(NP(C)(=O)Oc2ccccc2)c(C)c1` (stereo not given), for which the inhibition is inactive: -5.9%.
As for `COc1ccccc1OP(C)(=O)Nc1cc(Cl)ccc1C` (stereo not given), the inhibition was inactive: -5.4%.
`COc1ccc(OP(C)(=O)Nc2cccc(F)c2)cc1` (stereo not given): the inhibition was inactive: -1.25%.
Consider `Cc1cc(C)cc(OP(C)(N)=O)c1` (stereo not given), for which the inhibition is inactive: -5.59%.
In the case of `O=[N+]([O-])c1cc([N+](=O)[O-])c(Nc2cccnc2)c([N+](=O)[O-])c1`, the inhibition was inactive: 5.67%.
As for `CC(C)(C)c1ccc(OP(C)(=O)Nc2ccc(SC(F)(F)F)cc2)cc1` (stereo not given), the inhibition is inactive: -2.66%.
Turning to `Cc1cccc(C)c1OP(C)(N)=O` (stereo not given), the inhibition is inactive: -2.49%.
With `O=[N+]([O-])c1ccc2c(c1)C=Nc1ccccc1O2`, the inhibition was inactive: 0.59%.
With `COc1ccccc1-c1ccccn1.O=[N+]([O-])c1cc([N+](=O)[O-])c(O)c([N+](=O)[O-])c1` the figure was inactive: 2.77%; with `CCN(CC)CCCOC(=O)C(O)(c1ccccc1)c1ccccc1`, inactive: 1.45%.
In the case of `O=[N+]([O-])c1cc([N+](=O)[O-])c(Nc2ccccn2)c([N+](=O)[O-])c1`, the inhibition was inactive: -0.6%.
With `Cc1c(NP(C)(=O)Oc2ccc(C(C)C)cc2)c(=O)n(-c2ccccc2)n1C` (stereo not given) the figure was inactive: -4.79%; with `CCc1ccc(OP(C)(=O)O)cc1`, inactive: -0.28%; with `CP(=O)(Nc1ccccn1)Oc1ccccc1` (stereo not given), inactive: -0.82%.
Then `COc1ccccc1OP(C)(=O)Nc1ccc(C)cc1C` (stereo not given), with inactive: -5.54%; and `COc1ccccc1OP(C)(=O)Nc1ccc(Br)cc1` (stereo not given), with inactive: 0.9%; and `CN(C)CCOC(=O)C(O)(c1ccccc1)C1CCCC1` (stereo not given), with inactive: 4.82%.
For the compound `COc1ccc(OP(C)(=O)Nc2ccccn2)cc1` (stereo not given), the inhibition is inactive: -0.86%.
With `CP(=O)(OCCOc1ccccc1)OCCOc1ccccc1`, the inhibition was inactive: 0.28%.
In the case of `CCCCCCCCCCCCCCCC1C[N+](C)(C)CCOP(C)(=O)O1` (stereo not given), the inhibition was inactive: 7.06%.
Turning to `CP(=O)(Nc1ccc(Cl)cc1Cl)Oc1ccccc1` (stereo not given), the inhibition was inactive: 1.74%.
In the case of `O=C1C(O)=C([N+](=O)[O-])C(=O)C(O)=C1[N+](=O)[O-]`, the inhibition was inactive: 30%.
Then `Cc1cc(C)cc(OP(C)(=O)Nc2cccc(C(F)(F)F)c2)c1` (stereo not given), with inactive: -1.83%; and `COc1ccc(OP(C)(=O)Nc2ccccc2Br)cc1` (stereo not given), with inactive: -0.01%; and `COc1ccccc1OP(C)(=O)Nc1ccc(C)c(C)c1` (stereo not given), with inactive: -6.46%.
Then `CP(=O)(OC12CC3CC(CC(C3)C1)C2)OC12CC3CC(CC(C3)C1)C2`, with inactive: -1.01%; and `CCOC(=O)c1ccc(NP(C)(=O)Oc2ccc(Cl)cc2)cc1` (stereo not given), with inactive: -0.25%.
`CP(=O)(Nc1ccc(Cl)cc1)Oc1ccc(F)cc1` (stereo not given): the inhibition was inactive: -1.84%.
`CC(C)(C)c1ccc(OP(C)(=O)O)cc1`: the inhibition was inactive: -2.06%.
In the case of `COc1ccccc1OP(C)(=O)Nc1ccccc1Br` (stereo not given), the inhibition was inactive: 1.34%.
As to `CN(C)C(=O)c1c([N+](=O)[O-])cc([N+](=O)[O-])cc1[N+](=O)[O-]`, the inhibition was inactive: 0.43%.
Consider `CCN(CC)CC(O)COC(=O)C(O)(c1ccccc1)C1CCCCC1` (stereo not given), for which the inhibition is inactive: 4.95%.
Take `COc1ccc(OP(C)(=O)Nc2ccc(Br)cc2)cc1` (stereo not given): the inhibition is inactive: -3.84%.
For the compound `CP(=O)(Oc1ccccc1)N1CCOC1=O` (stereo not given), the inhibition is inactive: -1.97%.
For `CCc1ccc(OP(C)(=O)Nc2cccnc2)cc1` (stereo not given), the inhibition is inactive: 1.71%.
Take `COc1ccccc1OP(C)(=O)Nc1c(C)n(C)n(-c2ccccc2)c1=O` (stereo not given): the inhibition was inactive: 2.07%.
Consider `O=C(OCCCN1CCCC1)C(O)(c1ccccc1)C1CCCCC1` (stereo not given), for which the inhibition was inactive: -5.5%.
With `CP(=O)(Nc1ccc2c(c1)OCCO2)Oc1ccccc1` (stereo not given) the figure was inactive: 7.06%; with `O=[N+]([O-])c1cc([N+](=O)[O-])c(C(F)(F)F)c([N+](=O)[O-])c1O`, inactive: 3.42%.
For `Cc1ccccc1NP(C)(=O)Nc1ccccc1C`, the inhibition was inactive: 5.86%.
With `CP(=O)(Nc1ccc(SC(F)(F)F)cc1)Oc1ccc(F)cc1` (stereo not given) the figure was inactive: -2.55%.
Regarding `CCOP(C)(=S)SCC(=O)NC(C)(CC)C(=O)O` (stereo not given), the inhibition was inactive: -3.18%.
`Cc1cc(-c2cccc3ccccc23)c(C)cn1.O=[N+]([O-])c1cc([N+](=O)[O-])c(O)c([N+](=O)[O-])c1`: the inhibition is inactive: -2.01%.
With `O=[N+]([O-])c1cc([N+](=O)[O-])c(NCC2CCS(=O)(=O)C2)c([N+](=O)[O-])c1` (stereo not given) the figure was inactive: 1.67%; with `O=[N+]([O-])c1ccc(OP2(=O)COCCO2)cc1` (stereo not given), inactive: 0.39%.
With `Cc1c(C(c2ccc3c(c2)OCO3)c2c(C)n(C)n(-c3ccccc3)c2=O)c(=O)n(-c2ccccc2)n1C.O=[N+]([O-])c1cc([N+](=O)[O-])c(O)c([N+](=O)[O-])c1`, the inhibition was inactive: 1.55%.
In the case of `COc1ccc(OP(C)(=O)Nc2cccc(Br)c2)cc1` (stereo not given), the inhibition was inactive: -2.57%.
As to `COc1ccc(NP(C)(=O)Oc2ccccc2OC)cc1` (stereo not given), the inhibition is inactive: 105%.
With `CN(C)CCOC(=O)C(O)(c1ccccc1)C1CCCCC1` (stereo not given), the inhibition was inactive: 2.01%.
With `CCN(CC)CCCOC(=O)C(O)(c1ccccc1)C1CCCCC1` (stereo not given), the inhibition is inactive: -3.6%.
With `Cc1c([N+](=O)[O-])cc([N+](=O)[O-])c(Br)c1[N+](=O)[O-]` the figure was inactive: -1.77%; with `CCCCCOc1ccc(NP(C)(=O)Oc2ccc(Cl)cc2Cl)cc1` (stereo not given), inactive: -2.6%; with `O=[N+]([O-])c1cc([N+](=O)[O-])c(OC2CCCCC2O)c([N+](=O)[O-])c1` (stereo not given), inactive: 8.6%.
Consider `CP(=O)(Nc1ccccc1)Oc1ccc(F)cc1` (stereo not given), for which the inhibition was inactive: 0.06%.
Regarding `CCN(CC)CCCNc1ccccc1[N+](=O)[O-].O=[N+]([O-])c1cc([N+](=O)[O-])c(O)c([N+](=O)[O-])c1`, the inhibition is inactive: 0.94%.
As for `COc1ccc(OP(C)(=O)Nc2ccc(SC(F)(F)F)cc2)cc1` (stereo not given), the inhibition was inactive: -1.83%.
With `CCOC(=O)c1ccc(NP(C)(=O)Oc2ccc(F)cc2)cc1` (stereo not given) the figure was inactive: -0.79%; with `O=C(OCCN1CCN(CCOCc2ccccc2)CC1)C(O)(c1ccccc1)c1ccccc1`, inactive: 0.04%; with `O=C(OC1CN2CCC1CC2)c1ccc([N+](=O)[O-])cc1` (stereo not given), inactive: -1.78%.
For `COc1ccc2c(c1O)-c1c(O)c(OC)cc3c1[C@H](C2)[N+](C)(C)CC3.O=[N+]([O-])c1cc([N+](=O)[O-])c([O-])c([N+](=O)[O-])c1[O-]`, the inhibition is inactive: -3.61%.
On to `O=[N+]([O-])c1cc([N+](=O)[O-])c(Nc2ccc(Cl)cc2)c([N+](=O)[O-])c1`, for which the inhibition was inactive: -5.41%.
With `CC(C)c1ccc(OP(C)(=O)Nc2ccc(SC(F)(F)F)cc2)cc1` (stereo not given) the figure was inactive: -1.62%.
Turning to `CP(=O)(Nc1ccccc1F)Oc1ccccc1` (stereo not given), the inhibition is inactive: -4.51%.
